{"source": "ChEMBL document CHEMBL4619808", "about": "“Tailoring the Physicochemical Properties of Antimicrobial Peptides onto a Thiazole-Based γ-Peptide Foldamer” (J Med Chem, 2020)", "key": {"Bacillus subtilis": {"system": "Bacillus subtilis", "test": "Antimicrobial activity against Bacillus subtilis ATCC 6633 assessed as inhibition of microbial growth incubated for 24 hrs", "type": "functional", "settings": "ATCC 6633, 24 h", "procedure,_shortened": "(§1)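 Broth microdilution. Strains grown overnight on TSA at 37°C, suspended to 10⁸ CFU/mL in Tryptone-Sel, then diluted to 10⁶ CFU/mL in double-strength Mueller-Hinton broth. Two-fold serial dilutions in sterile water (pH 7.4–7.7) mixed 1:1 with inoculum. Incubation 24 h at 37°C. MIC is the lowest concentration inhibiting growth. Duplicate wells, three independent experiments.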"}, "Staphylococcus aureus": {"system": "Staphylococcus aureus", "test": "Antimicrobial activity against Staphylococcus aureus ATCC 6538 assessed as inhibition of microbial growth incubated for 24 hrs", "type": "functional", "settings": "ATCC 6538, 24 h", "procedure,_shortened": "as §1"}, "Escherichia coli": {"system": "Escherichia coli", "test": "Antimicrobial activity against Escherichia coli ATCC 8739 assessed as inhibition of microbial growth incubated for 24 hrs", "type": "functional", "settings": "ATCC 8739, 24 h", "procedure,_shortened": "as §1"}, "Pseudomonas aeruginosa": {"system": "Pseudomonas aeruginosa", "test": "Antimicrobial activity against Pseudomonas aeruginosa ATCC 9027 assessed as inhibition of microbial growth incubated for 24 hrs", "type": "functional", "settings": "ATCC 9027, 24 h", "procedure,_shortened": "as §1"}, "[1]": {"test": "Hemolytic activity in human RBC assessed as induction of hemolysis incubated for 1 hr", "type": "cell-based, Erythrocyte", "settings": "red blood cells (erythrocytes), read-out: HD50", "procedure,_shortened": "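Human RBCs washed in PBS and used at 5% packed cell volume, mixed 1:1 with two-fold serial dilutions in PBS (pH 7.4–7.7). Incubation 1 h at 37°C, then centrifugation at 1500g for 10 min at 5°C. Supernatant absorbance read at 490 nm against PBS (0%) and 1% SDS/Tris (100%) controls. HC50 from three independent experiments, double duplicate.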"}}}
{"molecule": "CC[C@H](C)[C@H](NC(=O)CN)C(=O)NCC(=O)N[C@@H](C)C(=O)N[C@H](C(=O)N[C@@H](CC(C)C)C(=O)N[C@@H](CCCCN)C(=O)N[C@H](C(=O)N[C@@H](CC(C)C)C(=O)N[C@H](C(=O)N[C@H](C(=O)NCC(=O)N[C@@H](CC(C)C)C(=O)N1CCC[C@H]1C(=O)N[C@@H](C)C(=O)N[C@@H](CC(C)C)C(=O)N[C@H](C(=O)N[C@@H](CO)C(=O)N[C@@H](Cc1c[nH]c2ccccc12)C(=O)N[C@H](C(=O)N[C@@H](CCCCN)C(=O)N[C@@H](CCCNC(=N)N)C(=O)N[C@@H](CCCCN)C(=O)N[C@@H](CCCNC(=N)N)C(=O)N[C@@H](CCC(N)=O)C(=O)N[C@@H](CCC(N)=O)C(N)=O)[C@@H](C)CC)[C@@H](C)CC)[C@@H](C)O)[C@@H](C)O)C(C)C)C(C)C", "note": "[MELITTIN]", "values": [{"measurement": "MIC", "setting": "Bacillus subtilis", "result": 0.8, "unit": "µM"}, {"measurement": "MIC", "setting": "Staphylococcus aureus", "result": 0.9, "unit": "µM"}, {"measurement": "MIC", "setting": "Escherichia coli", "result": 3.4, "unit": "µM"}, {"measurement": "MIC", "setting": "Pseudomonas aeruginosa", "result": 3.1, "unit": "µM"}, {"measurement": "HC50 at 1 h", "setting": "[1]", "result": 3000, "unit": "nM"}]}
